Measured affinities in a library of Ab-14 light chain variants

Data: MIT Lincoln Laboratory AlphaSeq set, Engelhart et al. 2022, doi:10.1038/s41597-022-01779-4, as distributed in FLAb.

All variants were tested on one target, the spike HR2 peptide PDVDLGDISGINAS (SARS-CoV-2).

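The starting antibody came from a phage panning campaign against this peptide. Library AAYL50 holds single substitutions and randomly drawn double and triple substitutions in the CDRs. In AlphaSeq, yeast of one mating type display the scFv and yeast of the other type display the target. The frequency of each diploid, read from paired DNA barcodes, reflects how well the two displayed proteins bind. Scores were corrected for input abundance and mapped to Kd with protein pairs of known affinity run in the same pool. The assay was run in three technical replicates.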

Parent scFv Ab-14: VH joined to VL by the linker GGGGSGGGGSGGGGS. Changes lie in the light chain CDRs alone.
VH: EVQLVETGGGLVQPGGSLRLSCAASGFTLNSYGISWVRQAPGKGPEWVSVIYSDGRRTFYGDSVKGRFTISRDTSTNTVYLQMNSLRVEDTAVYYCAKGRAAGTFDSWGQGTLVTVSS
VL: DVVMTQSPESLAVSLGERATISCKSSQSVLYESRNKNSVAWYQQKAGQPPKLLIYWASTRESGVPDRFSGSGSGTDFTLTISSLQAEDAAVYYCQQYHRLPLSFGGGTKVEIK

Positions count from residue 1 of the parent VL; S38N puts N in place of S. All variants listed here change S38 of the VL, counted from its first residue. Affinities are written as log10 Kd with Kd in nM; a lower number is a better binder. Averages over replicates are reported, and they cover detected replicates only. A pair that was not seen in that replicate is written "nd"; this usually means weak binding, but a binder can also be missed. Entries are sorted by rising average, undetected variants last. In this assay the parent's reference entry averaged 0.65; its copy inside this library read 1.68.

The variant S38N showed 0.65, 0.90, 0.68 (mean 0.74). The variant R34Y/N35D/S38G showed 1.31, 1.27, 1.06 (mean 1.21). For S25Q/S38E/R99P, the assay gave 1.31, 1.46, 1.30 (mean 1.36). For S26P/S38H, the assay gave 1.27, 1.50, 1.34 (mean 1.37). With S38D/W56G/Y97A the result was 1.92, 1.51, 1.80 (mean 1.75). With V29I/Y31L/S38T the result was 2.48, 2.51, nd (mean 2.49).

For L30K/R34P/S38G, the assay gave 2.54, 2.38, 3.15 (mean 2.69). With S38C/A57D/L100G the result was 2.50, 2.62, 2.95 (mean 2.69). For S26Q/S38F/P101W, the assay gave 2.38, 3.24, nd (mean 2.81). With S26P/S33I/S38E the result was 2.94, 3.56, nd (mean 3.25). The variant S25W/S38D/L100D showed nd, 3.29, nd. The variant S25V/S38Y/A57W gave nd, nd, 3.42.

The variant V29N/S38R/S103Y gave 4.37, 2.39, 3.57 (mean 3.44). The variant S38E/T59L/Q96F gave 3.32, 4.33, 3.36 (mean 3.67). With R34D/N35I/S38W the result was 3.70, 3.60, 3.73 (mean 3.68). For L30C/S38V, the assay gave nd, nd, 3.88. The variant K36T/S38L showed 3.71, 3.86, 6.44 (mean 4.67). For N37T/S38Y, the assay gave nd, 3.99, 5.70 (mean 4.85).

For S33E/S38I/S103H, the assay gave nd, nd, 5.05. For S38H/Q95P/P101F, the assay gave nd, 5.59, nd. For S38H/P101N, the assay gave nd, nd, nd. With S26P/S38E/H98E the result was nd, nd, nd. The variant S38H/Q96N gave nd, nd, nd. For S28A/N35K/S38I, the assay gave nd, nd, nd.

With S38V/A57K/S62F the result was nd, nd, nd. For S38Q/Q96F/S103V, the assay gave nd, nd, nd. With S38Y/A57L/Y97A the result was nd, nd, nd. The variant S38Y/A40G/A57G showed nd, nd, nd. With S38F/L100K the result was nd, nd, nd. The variant S38C/E61R/L102N showed nd, nd, nd.

The variant S28R/S38I/V39Q gave nd, nd, nd. For R34E/S38H/Q96R, the assay gave nd, nd, nd. For Y31S/S38C/Q95T, the assay gave nd, nd, nd. The variant E32D/S38T/P101D gave nd, nd, nd. For E32D/S38F/W56P, the assay gave nd, nd, nd.

The closing 5 entries, repeated:

Variant S28R/S38I/V39Q gave nd, nd, nd.
Variant R34E/S38H/Q96R gave nd, nd, nd.
Variant Y31S/S38C/Q95T gave nd, nd, nd.
Variant E32D/S38T/P101D gave nd, nd, nd.
Variant E32D/S38F/W56P gave nd, nd, nd.

Empty control strains, which show no peptide, gave a signal in 18% of pairings with library AAYL50; the median was 4.19 and 95% of these signals were weaker than 2.99. No background was subtracted.